High-throughput results: PubChem, several laboratories
C2C12 statin = suppression of simvastatin myotoxicity; C2C12 myotubes + simvastatin, ATP luminescence, 48 h; scaled: DMSO 0, geranylgeraniol control 100; rescue of ATP level, % at 7.49 µM; 330,000 compounds, 0.78% hits;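 active means mean ATP rescue above about 67%, or every replicate alone reaching that limit, limit read from the data, passing the limit was not always enough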;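 further: myotubes were challenged with 10 µM simvastatin during compound exposure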
iPSC survival up = increases survival of single human iPS cells | hiPSC single-cell survival, ATPlite luminescence; 100% = ROCK inhibitor wells, 0% = DMSO | survival enhancement, % at 20 µM | 360,000 compounds, 0.044% hits; in the data active means survival enhancement above about 18%;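 further: cells exposed to compounds for 16 hours before the ATP read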
FN deposit inh = fibronectin deposition inhibition | AH1F fibroblasts, Alexa488-fibronectin deposition fluorescence, overnight | inhibition, % at 12.6 µM | 350,000 compounds, 0.086% hits | AID 743247;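 active means mean inhibition across replicates of 30% or more, regardless of how many single replicates reach that level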
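Material: AH1F fibroblast monolayer depositing Alexa488-labelled fibronectin into matrix / Amount: 10000 AH1F cells per well / Signal: fluorescence 485/525 nm / Medium: DMEM, 2% serum / Compound: single dose, pinned / Incubation: 1 h cell adhesion before compound, then overnight fibronectin incubation / Reagent: Alexa488-FN, 24 nM final / Read-out: inhibition of fibronectin deposition signal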
PGC1a acetyl inh = PGC1a acetylation modulation, inhibitor mode; U2OS PGC1a acetylation, AlphaScreen anti-acetyl-lysine; with virally co-expressed GCN5 acetyltransferase; inhibition, % at 15.6 µM; 350,000 compounds, 0.17% hits; AID 651687;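 active means every replicate shows inhibition of at least 40%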
Yeast UUG start = modulators of yeast start codon fidelity, primary screen, whole organism, S. cerevisiae, single point, plate reader | AID 602363, 2012 | S. cerevisiae UUG-firefly luciferase reporter, luminescence/redox ratio | activity score, % at 18.7 µM | hit rate 0.13% among 350,000;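 active = replicate mean at a twofold rise or more, about +100% in these data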;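 also: firefly luciferase made from a UUG start codon reports start codon fidelity; reporter light over untreated wells divided by growth signal over untreated wells; some hits fall short of that in this replicate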
Of the large screens only hits and unclear results are named; the others gave an inactive call. A selection: hits, their analogues and other compounds. The true share with any hit is near 0.91%.

COc1ccc2c3c(n(C)c2c1)[C@@H](CO)N(Cc1ccccc1)CC31CCN(C)CC1	none (no result: C2C12 statin, iPSC survival up, FN deposit inh, Yeast UUG start)
O=C(CCN1CCCCC1)N[C@@H]1CC[C@@H](CCn2cc(-c3ccccc3)nn2)O[C@@H]1CO	none (no result: iPSC survival up, FN deposit inh)
C[C@]12c3[nH]c4ccc(Cl)cc4c3CCN1C(=O)[C@@H](CC(=O)NCc1ccco1)C[C@@H]2C(=O)N1CCCCC1	FN deposit inh 34
C[C@H](CO)N1C[C@H](C)[C@H](CN(C)Cc2ccc(C(F)(F)F)cc2)Oc2ccc(NS(=O)(=O)c3ccc(F)cc3)cc2CC1=O	none (no result: iPSC survival up, FN deposit inh)
Cc1ccc(S(=O)(=O)Nc2ccc3c(c2)CC(=O)N([C@H](C)CO)C[C@H](C)[C@@H](CN(C)Cc2ccc(C(F)(F)F)cc2)O3)cc1	C2C12 statin 115 (no result: iPSC survival up, FN deposit inh, Yeast UUG start)
C[C@H](CO)N1C[C@H](C)[C@@H](CN(C)Cc2ccc(C(F)(F)F)cc2)Oc2ccc(NS(=O)(=O)c3ccc(F)cc3)cc2CC1=O	C2C12 statin 83 (no result: iPSC survival up, FN deposit inh)
Cc1ccc(S(=O)(=O)Nc2ccc3c(c2)CC(=O)N([C@@H](C)CO)C[C@H](C)[C@H](CN(C)Cc2ccc(C(F)(F)F)cc2)O3)cc1	none (no result: iPSC survival up, FN deposit inh, Yeast UUG start)
C[C@H](CO)N1C[C@H](C)[C@@H](CN(C)Cc2ccc(C(F)(F)F)cc2)Oc2ccc(NS(=O)(=O)c3ccc(F)cc3)cc2C1=O	PGC1a acetyl inh 103 (no result: iPSC survival up)
COc1ccc(CCNS(=O)(=O)c2cccs2)cc1	C2C12 statin 128
N#Cc1nc(-c2ccco2)oc1N1CCCC1	C2C12 statin 112 (no result: FN deposit inh, Yeast UUG start)
C[C@H]1CCCCO[C@@H](CN(C)C(=O)c2ccncc2)[C@@H](C)CN([C@@H](C)CO)C(=O)c2cc(NC(=O)c3ccccc3)ccc2O1	none (no result: C2C12 statin, iPSC survival up, FN deposit inh, Yeast UUG start)
N#CCCN1CCN(Cn2c3ccccc3c3ccccc32)CC1	C2C12 statin 114 (no result: FN deposit inh)
ONC=Nc1cccc2nonc12	C2C12 statin 146 (no result: FN deposit inh)
O=S(=O)(Nc1ccccc1)c1cccc2nonc12	none (no result: PGC1a acetyl inh)
CCCN1[C@H](C(=O)N2CCOCC2)[C@@H](CO)[C@@H]2Cn3c(ccc(-c4ccccc4)c3=O)[C@@H]21	none (no result: iPSC survival up, FN deposit inh, PGC1a acetyl inh, Yeast UUG start)
C[C@H](CO)N1C[C@H](C)[C@@H](CN(C)Cc2ccc(Oc3ccccc3)cc2)Oc2ccc(N(C)C)cc2CC1=O	none (no result: iPSC survival up)
O=c1c2cc(F)ccc2sn1-c1ccccc1Cl	FN deposit inh 41 (no result: PGC1a acetyl inh)
Cc1cccc(OCCSCc2nc3ccccc3[nH]2)c1	C2C12 statin 81 (no result: FN deposit inh)
COC(=O)c1ccc(C)c(NS(=O)(=O)c2ccc3c(c2)OCCO3)c1	C2C12 statin 92 (no result: FN deposit inh)
COC(=O)c1ccc(C)c(NS(=O)(=O)c2ccc(OC)cc2)c1	none (no result: FN deposit inh)
COC(=O)COc1ccc(S(=O)(=O)Nc2ccccc2SC)cc1	C2C12 statin 127
CCOc1ccc(S(=O)(=O)Nc2ccccc2SC)cc1	none
CSc1ccccc1NS(=O)(=O)c1ccc2c(c1)OCCO2	C2C12 statin 92 (no result: FN deposit inh)
COc1ccccc1NS(=O)(=O)c1ccc2c(c1)OCCO2	none (no result: C2C12 statin)
C[C@H](CO)N1C[C@H](C)[C@H](CN(C)C(=O)NC2CCCCC2)OCCCC[C@H](C)Oc2ccc(NC(=O)Cc3ccccc3)cc2C1=O	none (no result: C2C12 statin, iPSC survival up, FN deposit inh)
O=C(Nc1ccc(F)cc1)N[C@@H]1CC[C@H](CCn2cc(-c3ccccc3F)nn2)O[C@@H]1CO	none (no result: iPSC survival up)
COc1ccc(NC(=O)N[C@@H]2CC[C@H](CCn3cc(-c4ccccc4F)nn3)O[C@H]2CO)cc1	PGC1a acetyl inh 62 (no result: iPSC survival up, FN deposit inh)
CC(=O)N1CC2(C1)[C@H](c1ccc(-c3cccc(F)c3)cc1)[C@@H](CO)N2CC1CC1	none (no result: C2C12 statin, iPSC survival up, Yeast UUG start)
COc1ccc(OC)c(NC(=O)COC(=O)Cn2nnc(-c3ccccc3)n2)c1	none
O=C(COC(=O)Cn1nnc(-c2ccccc2)n1)Nc1ccccc1Br	C2C12 statin 100
COC(=O)c1[nH]c2cc(C)ccc2c1NC(=O)CN1CCN(c2ccccc2OC)CC1	C2C12 statin 86 (no result: FN deposit inh)
CCOc1ccccc1CN1CCNC(=O)C1CC(=O)N(C)CCc1ccccn1 (stereo unspecified)	C2C12 statin 118
CCOc1ccccc1CN1CCNC(=O)C1CC(=O)NCCc1ccccn1 (stereo unspecified)	none
Nc1c(Cl)cc(Cl)cc1C(=O)OCC(=O)NC1CC1	C2C12 statin 70 (no result: FN deposit inh)
O=C(COC(=O)c1cc(F)c(F)cc1Cl)NC1CC1	none (no result: C2C12 statin, PGC1a acetyl inh, Yeast UUG start)
COc1ccc(S(=O)(=O)N(C)C[C@@H]2OCCCC[C@@H](C)Oc3ccc(NS(=O)(=O)c4cccs4)cc3C(=O)N([C@H](C)CO)C[C@H]2C)cc1	none (no result: C2C12 statin, iPSC survival up, FN deposit inh)
Cn1c(-c2sc3cc(C(F)(F)F)cnc3c2-c2cccnc2)n[nH]c1=S	C2C12 statin 139 (no result: FN deposit inh)
CCCNC(=O)N1[C@@H](CO)[C@@H]2c3ccccc3N(C(=O)Nc3ccc(F)cc3)C[C@@H]21	none (no result: iPSC survival up, FN deposit inh)
C[C@@H]1CN([C@@H](C)CO)C(=O)c2cc(NC(=O)C3CCCCC3)ccc2O[C@@H]1CN(C)C(=O)NC1CCCCC1	none (no result: iPSC survival up, Yeast UUG start)
CC(C)(C)C(=O)Nc1ccc(C(=O)NCc2cccnc2)cc1	C2C12 statin 114 (no result: FN deposit inh)
C[C@@H]1CN([C@@H](C)CO)C(=O)Cc2cc(NC(=O)Nc3ccc4c(c3)OCO4)ccc2O[C@@H]1CN(C)S(C)(=O)=O	none (no result: iPSC survival up, FN deposit inh)
